pIC50: −log10 of the molar value.
Tests used:
[1] = target: Glycogen debranching enzyme (Homo sapiens, UniProt P35573); test: Inhibition of glycogen glycogen de-branching enzyme by HPLC
Maltase-glucoamylase = Maltase-glucoamylase (Homo sapiens, UniProt O43451); test: Inhibition of maltase by HPLC
[2] = target: Lysosomal alpha-glucosidase (Homo sapiens, UniProt P10253); test: Inhibition of lysosomal alpha-glucosidase by HPLC

Amino acid sequences for entries named in this document (tags omitted). A change or cut given only in a name is not applied to a line headed by its entry.
UniProt P35573: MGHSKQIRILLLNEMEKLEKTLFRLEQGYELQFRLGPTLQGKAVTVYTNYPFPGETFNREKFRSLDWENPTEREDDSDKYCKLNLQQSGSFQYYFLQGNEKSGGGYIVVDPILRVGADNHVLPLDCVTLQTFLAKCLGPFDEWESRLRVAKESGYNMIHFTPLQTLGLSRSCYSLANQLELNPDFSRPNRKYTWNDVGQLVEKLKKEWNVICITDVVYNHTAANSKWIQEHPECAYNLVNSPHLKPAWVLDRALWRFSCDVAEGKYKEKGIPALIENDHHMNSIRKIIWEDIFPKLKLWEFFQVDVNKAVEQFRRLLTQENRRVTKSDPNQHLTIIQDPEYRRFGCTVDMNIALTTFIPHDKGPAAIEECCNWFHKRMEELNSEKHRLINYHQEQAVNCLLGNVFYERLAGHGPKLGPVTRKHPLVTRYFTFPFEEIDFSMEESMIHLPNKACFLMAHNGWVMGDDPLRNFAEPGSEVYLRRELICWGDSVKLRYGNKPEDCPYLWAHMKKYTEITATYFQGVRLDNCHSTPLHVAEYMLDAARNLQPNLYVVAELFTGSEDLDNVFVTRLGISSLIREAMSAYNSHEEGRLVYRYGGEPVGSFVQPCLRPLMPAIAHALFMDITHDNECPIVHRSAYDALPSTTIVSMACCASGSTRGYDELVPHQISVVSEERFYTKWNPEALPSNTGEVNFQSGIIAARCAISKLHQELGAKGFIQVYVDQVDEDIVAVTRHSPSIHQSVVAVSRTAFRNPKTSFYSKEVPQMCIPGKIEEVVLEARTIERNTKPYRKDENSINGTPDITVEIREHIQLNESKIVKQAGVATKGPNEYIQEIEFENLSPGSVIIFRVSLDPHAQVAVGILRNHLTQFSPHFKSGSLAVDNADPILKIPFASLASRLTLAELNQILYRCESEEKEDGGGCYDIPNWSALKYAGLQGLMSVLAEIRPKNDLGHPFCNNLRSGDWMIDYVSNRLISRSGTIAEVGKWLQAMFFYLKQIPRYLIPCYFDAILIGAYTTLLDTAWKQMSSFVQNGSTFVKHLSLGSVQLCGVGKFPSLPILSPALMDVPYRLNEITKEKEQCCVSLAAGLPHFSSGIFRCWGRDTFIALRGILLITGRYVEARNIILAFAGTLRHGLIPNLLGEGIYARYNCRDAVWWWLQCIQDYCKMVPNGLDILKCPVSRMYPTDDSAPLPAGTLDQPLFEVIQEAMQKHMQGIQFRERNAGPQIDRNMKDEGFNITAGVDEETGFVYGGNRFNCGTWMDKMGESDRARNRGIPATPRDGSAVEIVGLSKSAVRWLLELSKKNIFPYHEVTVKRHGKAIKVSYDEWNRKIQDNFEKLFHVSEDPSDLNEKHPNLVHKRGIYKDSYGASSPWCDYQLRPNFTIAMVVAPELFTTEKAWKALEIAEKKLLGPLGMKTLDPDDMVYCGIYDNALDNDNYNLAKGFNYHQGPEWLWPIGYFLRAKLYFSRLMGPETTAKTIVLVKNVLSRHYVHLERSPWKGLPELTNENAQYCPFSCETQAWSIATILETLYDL
UniProt O43451: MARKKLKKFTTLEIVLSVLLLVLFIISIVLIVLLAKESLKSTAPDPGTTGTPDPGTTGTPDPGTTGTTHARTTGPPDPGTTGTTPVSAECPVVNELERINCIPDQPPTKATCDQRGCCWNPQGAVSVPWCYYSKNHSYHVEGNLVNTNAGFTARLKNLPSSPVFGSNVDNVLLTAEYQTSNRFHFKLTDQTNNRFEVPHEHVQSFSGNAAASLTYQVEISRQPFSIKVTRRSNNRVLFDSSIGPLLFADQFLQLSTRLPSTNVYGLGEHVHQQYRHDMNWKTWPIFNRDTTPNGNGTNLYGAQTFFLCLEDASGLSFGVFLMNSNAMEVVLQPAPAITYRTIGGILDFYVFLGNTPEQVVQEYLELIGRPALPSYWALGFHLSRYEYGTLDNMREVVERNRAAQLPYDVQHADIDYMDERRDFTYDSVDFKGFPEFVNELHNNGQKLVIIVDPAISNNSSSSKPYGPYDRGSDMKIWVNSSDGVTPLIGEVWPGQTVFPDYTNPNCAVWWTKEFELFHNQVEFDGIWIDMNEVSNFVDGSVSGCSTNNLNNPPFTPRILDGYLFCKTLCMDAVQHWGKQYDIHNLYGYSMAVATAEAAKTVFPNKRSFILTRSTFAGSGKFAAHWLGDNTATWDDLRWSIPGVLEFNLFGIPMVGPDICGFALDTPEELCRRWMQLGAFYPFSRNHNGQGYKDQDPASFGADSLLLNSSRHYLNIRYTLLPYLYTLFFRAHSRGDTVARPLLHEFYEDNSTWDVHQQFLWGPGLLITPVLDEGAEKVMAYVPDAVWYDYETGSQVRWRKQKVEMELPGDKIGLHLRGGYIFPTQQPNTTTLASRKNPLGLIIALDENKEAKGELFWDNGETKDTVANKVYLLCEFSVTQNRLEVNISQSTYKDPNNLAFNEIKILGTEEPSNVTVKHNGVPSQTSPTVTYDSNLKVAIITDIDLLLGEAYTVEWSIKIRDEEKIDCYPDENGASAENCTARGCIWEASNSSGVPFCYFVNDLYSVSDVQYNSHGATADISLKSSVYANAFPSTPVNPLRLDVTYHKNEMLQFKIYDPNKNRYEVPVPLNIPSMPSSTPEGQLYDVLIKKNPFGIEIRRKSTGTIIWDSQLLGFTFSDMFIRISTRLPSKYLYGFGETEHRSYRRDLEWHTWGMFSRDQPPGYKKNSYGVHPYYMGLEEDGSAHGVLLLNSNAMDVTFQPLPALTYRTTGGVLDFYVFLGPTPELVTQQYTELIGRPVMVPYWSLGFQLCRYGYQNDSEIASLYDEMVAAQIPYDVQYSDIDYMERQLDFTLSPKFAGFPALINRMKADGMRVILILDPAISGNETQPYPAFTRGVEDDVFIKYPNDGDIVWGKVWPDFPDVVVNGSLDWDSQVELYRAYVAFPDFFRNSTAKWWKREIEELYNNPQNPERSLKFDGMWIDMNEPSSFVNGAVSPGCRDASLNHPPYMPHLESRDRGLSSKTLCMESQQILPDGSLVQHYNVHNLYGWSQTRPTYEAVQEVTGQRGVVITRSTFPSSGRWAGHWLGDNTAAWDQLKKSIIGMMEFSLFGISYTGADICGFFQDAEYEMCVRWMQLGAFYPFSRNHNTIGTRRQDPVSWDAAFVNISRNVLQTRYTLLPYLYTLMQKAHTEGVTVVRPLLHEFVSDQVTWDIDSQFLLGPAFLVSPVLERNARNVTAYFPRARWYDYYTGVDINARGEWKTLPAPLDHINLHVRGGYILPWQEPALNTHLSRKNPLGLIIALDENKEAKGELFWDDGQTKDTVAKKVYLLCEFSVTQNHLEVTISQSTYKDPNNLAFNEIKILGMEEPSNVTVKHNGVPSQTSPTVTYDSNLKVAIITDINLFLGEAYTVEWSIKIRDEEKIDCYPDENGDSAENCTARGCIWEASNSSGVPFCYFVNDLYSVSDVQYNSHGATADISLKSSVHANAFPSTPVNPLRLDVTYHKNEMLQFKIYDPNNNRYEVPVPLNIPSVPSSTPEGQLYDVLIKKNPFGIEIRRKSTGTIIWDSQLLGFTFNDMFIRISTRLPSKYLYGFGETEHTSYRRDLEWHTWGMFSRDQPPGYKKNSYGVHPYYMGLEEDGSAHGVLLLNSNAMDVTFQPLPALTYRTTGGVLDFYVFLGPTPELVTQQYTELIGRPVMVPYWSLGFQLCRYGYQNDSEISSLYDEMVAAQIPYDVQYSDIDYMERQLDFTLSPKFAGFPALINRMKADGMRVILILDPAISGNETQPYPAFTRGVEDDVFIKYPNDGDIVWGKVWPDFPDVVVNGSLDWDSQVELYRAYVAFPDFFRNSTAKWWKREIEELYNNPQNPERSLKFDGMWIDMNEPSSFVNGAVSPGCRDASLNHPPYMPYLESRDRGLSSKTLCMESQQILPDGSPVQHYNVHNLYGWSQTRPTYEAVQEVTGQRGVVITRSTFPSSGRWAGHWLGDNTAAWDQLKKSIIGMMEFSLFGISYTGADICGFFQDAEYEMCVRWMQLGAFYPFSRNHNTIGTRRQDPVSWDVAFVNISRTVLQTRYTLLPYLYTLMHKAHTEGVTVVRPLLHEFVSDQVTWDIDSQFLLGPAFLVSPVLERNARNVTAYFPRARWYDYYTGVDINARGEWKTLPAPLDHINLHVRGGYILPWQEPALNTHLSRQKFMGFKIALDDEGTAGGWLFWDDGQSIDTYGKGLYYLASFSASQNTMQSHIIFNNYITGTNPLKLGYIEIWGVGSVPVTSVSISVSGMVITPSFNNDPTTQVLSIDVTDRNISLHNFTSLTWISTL

pIC50 [1]	pIC50 (Maltase-glucoamylase)	pIC50 [2]	SMILES
< 4.00	–	–	CCCCN1C[C@H](O)[C@@H](O)[C@H](O)[C@@H]1CO
–	4.82	–	OC[C@@H]1[C@H](O)[C@H](O)[C@@H](O)CN1CCCCCOCC12CC3CC(CC(C3)C1)C2
< 4.00	–	–	CCCCN1C[C@H](O)[C@@H](O)[C@@H](O)[C@@H]1CO
–	< 3.00	3.30	OC[C@H]1[C@H](O)[C@H](O)[C@@H](O)CN1CCCCCOCC12CC3CC(CC(C3)C1)C2
–	3.00	< 3.00	OC[C@H]1[C@@H](O)[C@H](O)[C@@H](O)CN1CCCCCOCC12CC3CC(CC(C3)C1)C2
–	5.40	–	OC[C@@H]1[C@@H](O)[C@H](O)[C@@H](O)CN1CCCCCOCC12CC3CC(CC(C3)C1)C2
